Results from patent US8618162B2 (priority 2007, dated 2013).

Amino acid sequences for entries named in this document (tags omitted). Residues count along the entry.
UniProt Q869C3, 39-737: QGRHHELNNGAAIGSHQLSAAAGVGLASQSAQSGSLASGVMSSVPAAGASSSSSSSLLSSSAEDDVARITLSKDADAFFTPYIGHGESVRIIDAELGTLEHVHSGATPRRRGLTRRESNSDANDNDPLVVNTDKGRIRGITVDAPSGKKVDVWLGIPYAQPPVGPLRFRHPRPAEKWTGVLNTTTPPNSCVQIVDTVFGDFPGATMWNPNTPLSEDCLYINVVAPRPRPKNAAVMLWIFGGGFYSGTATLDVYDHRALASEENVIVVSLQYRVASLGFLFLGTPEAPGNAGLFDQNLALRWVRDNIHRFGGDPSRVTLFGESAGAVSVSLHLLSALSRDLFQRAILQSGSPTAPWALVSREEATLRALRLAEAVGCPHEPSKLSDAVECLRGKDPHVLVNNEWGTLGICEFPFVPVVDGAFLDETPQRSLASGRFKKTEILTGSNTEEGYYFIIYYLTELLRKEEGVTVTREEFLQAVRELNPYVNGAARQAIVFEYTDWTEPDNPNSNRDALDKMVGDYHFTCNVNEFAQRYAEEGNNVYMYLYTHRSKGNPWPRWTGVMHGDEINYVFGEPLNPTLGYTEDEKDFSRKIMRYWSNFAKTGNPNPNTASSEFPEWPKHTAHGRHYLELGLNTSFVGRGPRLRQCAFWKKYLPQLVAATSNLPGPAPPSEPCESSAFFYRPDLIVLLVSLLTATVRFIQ

Legend:
Ag hmg AChE = biological target: T1, Ag hmg AChE (Anopheles gambiae, UniProt Q869C3); experiment: Ellman AChE inhibition assay, Anopheles gambiae homogenate (Ag hmg); assay type: biochemical; conditions: selectivity, values in parenthesis
T1 construct: To prepare the Ag homogenate (Ag hmg) 10 Anopheles gambiae mosquitoes were combined; from tissue; host or cells: whole Anopheles gambiae mosquitoes, crude homogenate supernatant

Anopheles gambiae = experiment: Live mosquito contact toxicity, WHO filter paper assay; assay type: in vivo; conditions: 1 hr exposure to treated filter paper
Ag ace-1S = assay type: biochemical, Anopheles gambiae; conditions: selectivity, values in parenthesis

CCCCN(CCCC)SN(C)C(=O)Oc1cccc2c1OC(C)(C)C2 [Carbosulfan, reference compound] was tested, and the “IC50 ratio (hAChE/Ag hmg)” value (Ag hmg AChE) was “(1.4x)”, the “Live Mosquito Contact Toxicity MC for 100% lethality at 24 hr” value (Anopheles gambiae) was 1.1 ug/cm^2 and the “IC50 ratio (hAChE/Ag ace-1S)” value (Ag ace-1S) was “(0.54x)”.

With CNC(=O)Oc1cccc2c1OC(C)(C)C2 [Carbofuran, reference compound] the “IC50 ratio (hAChE/Ag hmg)” value (Ag hmg AChE) was “(2.8x)”, the “Live Mosquito Contact Toxicity MC for 100% lethality at 24 hr” value (Anopheles gambiae) was 0.55 ug/cm^2 and the “IC50 ratio (hAChE/Ag ace-1S)” value (Ag ace-1S) was “(1.2x)”.
